Results from patent US20040039211A1, “Tetrapyrroles” (DUKE UNIVERSITY AND NATIONAL JEWISH MEDICAL AND RESEARCH …, priority 2000, published 2004).

Tests used:
[1] = Cyclic voltammetry, metal-centered redox potential; type: physicochemical
Procedure: Manganese(III) Salen. The compound was prepared by the published procedure (Boucher, J. lnorg. Nucl. Chem. 36:531 (1974)). The uv/vis in water: ε235=3.70×10^4 cm^−1 M^−1, ε279=1.70×10^4 cm^−1 M^−1, ε397=4.60×10^3 cm^−M^−1. The elemental analysis: Anal. Calcd for Mn^IIIsalenCl, C16H14N2O2MnCl: C, 53.88; H, 3.96; N; 7.85. Found: C, 54.02; H, 4.06; N, 7.85. […] Based on the E1/2 of Mn^IIITM-2-PyP^5+, ferrocenemethanol and of K3Fe(CN)6 in water and methanol, the redox potential of Mn^III salen^+ in water was calculated to be E1/2=−0.13 V vs NHE.
Electrochemistry of the Manganese(III) Biliverdin Dimethylester. Measurements were made using a CH Instruments model 600 voltammetric analyzer as described previously(Batinic-Haberle et al, Inorg. Chem. 38:4011 (1999)). A three-electrode system in a small volume (0.5-3.0 mL), with a 3 mm diameter glassy carbon button working electrode (Bioanalytical Systems), Ag/AgCl reference electrode (3 M NaCl, Bioanalytical Systems), and a Pt wire (0.5 mm) as auxiliary electrode, were used. The cyclic votammetry was performed on 0.5 mM (per manganese) methanol/aqueous (90/10, v/v) solutions of the compounds investigated. The ionic strength was kept at 0.10 M (NaCl), and 0.05 M tris buffer was used for pH^* adjustment. For calibration purposes, compounds of different hydrophilicities, […], (Kolthof et al, J. Phys. Chem. 39:945 (1935)) ferrocenemethanol and Mn^IIITM-2-PyP^5+ were studied in both aqueous and methanol/aqueous (90/10, v/v) solutions (I=0.10 M NaCl, 0.05 M tris buffer, pH^* 7.9). In all cases the measured E1/2 was 170 mV more positive in methanolic than in aqueous solution and this value was used to predict the redox potential in aqueous solution from measurement in methanol/aqueous solution. In addition, Mn^IIITM-2-PyP^5+ was added as an internal standard when cyclic voltammetry of {Mn^IIIBVDME}2 in methanol was performed.

[2] = system: SOD-proficient E. coli AB1157

Manganese(III) Biliverdin IX Dimethylester [{Mn^IIIBVDME}2]
E1/2, V vs NHE ([1]; Mn(III)/Mn(II) couple, extrapolated/calculated redox potential in aqueous solution): −0.23 V vs NHE
E1/2, V vs NHE ([1]; Mn(III)/Mn(IV) couple, extrapolated redox potential in aqueous solution, listed as compound of FIG. 2C): +0.45 V vs NHE
E1/2, V vs NHE ([1]; Mn(III)/Mn(IV) couple, extrapolated redox potential in aqueous solution, listed as ½ {Mn^III/IVBVDME^0/−}2): −0.45 V vs NHE
effect on growth of SOD-proficient E. coli [2]: did not affect the growth
